Data as given in PMC7067268, “Biosynthesis of plant tetrahydroisoquinoline alkaloids through an imine reductase route” (Chemical Science, 2019).

The chains behind the UniProt entries cited, without tags or fusion partners. Residues count along the entry.
UniProt Q948P7, 1-358: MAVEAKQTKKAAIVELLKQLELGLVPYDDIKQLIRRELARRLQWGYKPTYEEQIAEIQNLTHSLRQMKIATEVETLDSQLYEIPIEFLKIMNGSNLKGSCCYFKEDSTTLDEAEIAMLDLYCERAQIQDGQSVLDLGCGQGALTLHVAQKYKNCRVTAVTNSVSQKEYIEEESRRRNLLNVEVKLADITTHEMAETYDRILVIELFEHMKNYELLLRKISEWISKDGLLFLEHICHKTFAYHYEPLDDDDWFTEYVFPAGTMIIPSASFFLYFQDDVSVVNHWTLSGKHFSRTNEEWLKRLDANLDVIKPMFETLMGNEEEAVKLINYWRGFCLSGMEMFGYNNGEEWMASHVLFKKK

The compounds below were run against Coclaurine N-methyltransferase (CNMT) (Coptis japonica, UniProt Q948P7).
With `COc1cc2c(cc1OC)[C@H](c1cc(OC)c(OC)c(OC)c1)NCC2` the Km was 160 µM. In the case of `COc1cc2c(cc1OC)[C@H](Cc1ccccc1)NCC2`, the Km is reported as 378 µM. In the case of `COc1ccc([C@@H]2NCCc3cc(OC)c(OC)cc32)cc1OC`, the Km is reported as 289 µM.
